## Ab-14 light chain CDR variants: yeast mating affinities

The measurements come from Engelhart et al. 2022 (doi:10.1038/s41597-022-01779-4) through the FLAb antibody collection.

Target peptide (SARS-CoV-2 spike, HR2 region): PDVDLGDISGINAS

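Phage display of a naive human antibody library on the peptide gave the parent. Variants in AAYL50 differ from the parent at up to three CDR positions; double and triple changes were sampled at random. In AlphaSeq, yeast of one mating type display the scFv and yeast of the other type display the target. The frequency of each diploid, read from paired DNA barcodes, reflects how well the two displayed proteins bind. Scores were corrected for input abundance and mapped to Kd with protein pairs of known affinity run in the same pool. There are three technical replicates.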

Each scFv is VH, a (GGGGS)3 linker, VL, as in the parent Ab-14, and differs from it in the CDRs of the light chain only.
VH: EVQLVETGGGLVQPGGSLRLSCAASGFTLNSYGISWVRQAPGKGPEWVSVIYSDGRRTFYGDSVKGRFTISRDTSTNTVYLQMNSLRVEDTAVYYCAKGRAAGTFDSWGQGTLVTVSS
VL: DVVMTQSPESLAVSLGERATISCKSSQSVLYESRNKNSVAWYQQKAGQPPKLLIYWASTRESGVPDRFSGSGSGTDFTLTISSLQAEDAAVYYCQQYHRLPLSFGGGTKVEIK

The parent's light chain CDRs are KSSQSVLYESRNKNSVA, WASTRES, QQYHRLPLS; each variant's own CDRs replace them letter for letter. Affinities are written as log10 Kd with Kd in nM; a lower number is a better binder. Where no diploid with the target was found in that replicate, the entry reads "ND": below detection, most likely a poor binder, though not proof of it. As a blank, each scFv also met three strains without target: over library AAYL50, 18% of these pairings were detected, typically at 4.19 and seldom below 2.99. For each scFv, signals with the empty controls are counted beside the result, with their mean in brackets. Parent in this assay: reference entry 0.65, copy in this library 1.68.

CDR-L1	CDR-L2	CDR-L3	replicates, log10 nM	empty controls
KSYQSVLYESRNKNSVA	WAHTRES	NQYHRLPLS	-0.02 0.35 0.08	7 of 9 (5.80)
KWSQSVLYESRNKNSVA	WASTRES	QQYTRLPLS	1.04 1.03 0.66	0 of 9
KSSQSVLYESRNKNSVC	WASTRET	QQYHRVPLS	ND ND ND	0 of 9
KSSQSVLYFKRNKNSVA	WASTRES	QQYHRMPLS	3.32 2.71 3.44	2 of 9 (3.84)
KSSQSVLYESRNKNSVQ	WASTRES	QQCHRLPLT	ND ND ND	0 of 9
KSSQRVLYESRIKNSVA	WASTRES	QQYHRLPLS	2.41 3.18 2.47	0 of 9
KSSQSVPLESRNKNSVA	WASTRES	QQHHRLPLS	ND 3.55 ND	0 of 9
KSSQDVLYESRNKNSVA	WASENES	QQYHRLPLS	2.62 2.24 1.87	1 of 9 (4.50)
KSSYSVLYESRNKFSVA	WASTRES	QQYHRLPLS	ND ND ND	0 of 9
KSSQSVLYESRNKNSVA	RHSTREW	QQYHRLPLS	4.98 4.63 4.51	5 of 9 (5.29)
KSWQSVLYESAIKNSVA	WASTRES	QQYHRLPLS	ND ND ND	0 of 9
KVSQSELYESRNKNSVA	WASTRES	QQYHRPPLS	1.26 1.52 1.38	1 of 9 (4.26)
KSSHSVLYESRNKNSHA	WASTRES	FQYHRLPLS	ND 3.49 ND	1 of 9 (3.49)
KSSDSVLYESRNDNSVA	WASTRVS	QQYHRLPLS	1.34 1.48 1.41	5 of 9 (4.16)
KSSQSVLSESRNKNSVA	WALTSES	QQYHRLPLS	3.38 4.09 ND	2 of 9 (3.80)
KSSQSVLYESRNKNSVA	CASTAES	MQYHRLPLS	ND ND 4.62	1 of 9 (3.14)
KSSQSVLMESRNKNSVA	WASTRES	TQYHRNPLS	5.15 ND ND	1 of 9 (4.76)
KSSQSVLYVSRNKNSWA	WASTRES	QQHHRLPLS	ND ND ND	0 of 9
KSSQSVLYESRNKNFVA	WASTRES	AAYHRLPLS	4.75 5.20 5.89	4 of 9 (3.99)
KSSYSVLYESRFKNSVA	WASTRES	QQYCRLPLS	2.23 1.73 1.74	2 of 9 (4.33)
KLSKSVLYESRNKMSVA	WASTRES	QQYHRLPLS	ND ND ND	0 of 9
KSSQSVLYESHNKNSTA	WASTRES	QQYHRLPLH	ND ND ND	1 of 9 (4.27)
KSSTSVLYESRNKNSVA	WASQRKS	QQYHRLPLS	2.80 2.55 2.89	3 of 9 (3.65)
KSSQSVLYESRNRNSVR	WASTRES	QQYHRLPLS	ND ND ND	1 of 9 (3.42)
KSSQSVLYESRNKNQVA	WASNREW	QQYHRLPLS	ND ND ND	0 of 9
KSRQSVLYESRNKESVA	WASNRES	QQYHRLPLS	ND 3.72 3.04	1 of 9 (4.36)
KSSQEVLYESREKNSVA	WASTRES	LQYHRLPLS	1.93 1.75 1.84	1 of 9 (3.85)
KSSQSVTYESRNKNIVA	WASSRES	QQYHRLPLS	ND ND ND	1 of 9 (5.59)
KSSQSVLYWSRNKASVA	WASTRES	QQYHRLQLS	ND ND ND	0 of 9
KSSQSVLDESRNKNSVA	WASLRES	QQYERLPLS	1.06 1.18 1.07	3 of 9 (4.29)
KSSQSVLYESRNKVSVA	WASTRLS	QQYHRLPES	ND ND ND	1 of 9 (2.79)
KSSQSVLYESRNKNSVH	WDSTRES	NQYHRLPLS	5.14 ND ND	1 of 9 (3.35)
KSSQSVLYESRNKNSVA	WAWTRSS	QQYHRLPLS	2.64 2.55 2.65	0 of 9
KSSQSVLYMSRNKESVA	WASTRES	QQYTRLPLS	1.73 1.79 1.66	0 of 9
KSSQSVLVESRNKNSVA	WAATRES	QQYHRFPLS	1.09 1.31 1.23	3 of 9 (4.30)
KSSQSVLYESRNKNSNA	WAWTRES	QQAHRLPLS	4.04 4.88 ND	3 of 9 (4.19)
KSSQSVLYESRNKNIVA	WASTRES	QWQHRLPLS	5.39 4.58 4.96	8 of 9 (5.03)

The 5 strongest on average among those seen in every replicate, once more:

CDR-L1	CDR-L2	CDR-L3	replicates, log10 nM	empty controls
KSYQSVLYESRNKNSVA	WAHTRES	NQYHRLPLS	-0.02 0.35 0.08	7 of 9 (5.80)
KWSQSVLYESRNKNSVA	WASTRES	QQYTRLPLS	1.04 1.03 0.66	0 of 9
KSSQSVLDESRNKNSVA	WASLRES	QQYERLPLS	1.06 1.18 1.07	3 of 9 (4.29)
KSSQSVLVESRNKNSVA	WAATRES	QQYHRFPLS	1.09 1.31 1.23	3 of 9 (4.30)
KVSQSELYESRNKNSVA	WASTRES	QQYHRPPLS	1.26 1.52 1.38	1 of 9 (4.26)